The values below come from ChEMBL document CHEMBL1145284, “Combined target-based and ligand-based drug design approach as a tool to define a novel 3D-pharmacophore model of human A3 adenosine receptor antagonists: pyrazolo[4,3-e]1,2,4-triazolo[1,5-c]pyrimidine derivatives as a key study” (J Med Chem, 2005).

Chains of the proteins cited; added tags and fusions are not shown.
UniProt P0DMS8, whole entry: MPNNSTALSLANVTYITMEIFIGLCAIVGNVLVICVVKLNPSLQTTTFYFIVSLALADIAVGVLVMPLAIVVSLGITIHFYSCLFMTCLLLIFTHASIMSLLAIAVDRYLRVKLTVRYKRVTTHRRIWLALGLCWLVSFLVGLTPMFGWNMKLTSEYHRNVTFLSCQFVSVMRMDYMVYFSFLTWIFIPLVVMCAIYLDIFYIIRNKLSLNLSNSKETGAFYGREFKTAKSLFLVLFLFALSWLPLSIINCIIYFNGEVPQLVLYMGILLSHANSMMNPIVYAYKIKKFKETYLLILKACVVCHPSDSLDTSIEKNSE

This experiment concerns the target Adenosine receptor A3 (Homo sapiens, UniProt P0DMS8).

With `Cn1cc2c(nc(NC(=O)NC3CCCCC3)n3nc(-c4ccco4)nc23)n1`, the affinity corresponds to a Ki of 1.01 nM.
